Assay results taken from patent US9598421B2, “Imidazopyridazine compounds” (Pfizer Inc., priority 2014, dated 2017).

Sequences of proteins named here, by UniProt entry; tags and fusion partners are left off. A line that says so, or that is headed by a name, gives the form on record, which may keep a tag or linker. Residues count along the entry.
UniProt Q08499, 186-808: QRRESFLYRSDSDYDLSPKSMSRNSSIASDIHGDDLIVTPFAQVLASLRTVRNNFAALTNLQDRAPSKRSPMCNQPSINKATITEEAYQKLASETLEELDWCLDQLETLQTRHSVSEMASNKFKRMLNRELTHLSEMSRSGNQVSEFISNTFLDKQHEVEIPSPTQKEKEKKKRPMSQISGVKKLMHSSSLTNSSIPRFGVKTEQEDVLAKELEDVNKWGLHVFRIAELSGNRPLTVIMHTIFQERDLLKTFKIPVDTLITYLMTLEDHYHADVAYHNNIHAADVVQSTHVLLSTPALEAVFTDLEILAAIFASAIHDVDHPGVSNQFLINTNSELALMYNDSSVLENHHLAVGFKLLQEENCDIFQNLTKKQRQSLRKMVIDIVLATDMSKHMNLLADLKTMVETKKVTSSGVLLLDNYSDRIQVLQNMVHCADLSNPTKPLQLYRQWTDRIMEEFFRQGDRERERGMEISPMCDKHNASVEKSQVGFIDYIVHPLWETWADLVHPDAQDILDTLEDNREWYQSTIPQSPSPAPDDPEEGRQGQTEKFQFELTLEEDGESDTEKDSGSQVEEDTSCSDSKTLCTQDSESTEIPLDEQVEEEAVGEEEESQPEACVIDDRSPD
UniProt Q08493, 2-712: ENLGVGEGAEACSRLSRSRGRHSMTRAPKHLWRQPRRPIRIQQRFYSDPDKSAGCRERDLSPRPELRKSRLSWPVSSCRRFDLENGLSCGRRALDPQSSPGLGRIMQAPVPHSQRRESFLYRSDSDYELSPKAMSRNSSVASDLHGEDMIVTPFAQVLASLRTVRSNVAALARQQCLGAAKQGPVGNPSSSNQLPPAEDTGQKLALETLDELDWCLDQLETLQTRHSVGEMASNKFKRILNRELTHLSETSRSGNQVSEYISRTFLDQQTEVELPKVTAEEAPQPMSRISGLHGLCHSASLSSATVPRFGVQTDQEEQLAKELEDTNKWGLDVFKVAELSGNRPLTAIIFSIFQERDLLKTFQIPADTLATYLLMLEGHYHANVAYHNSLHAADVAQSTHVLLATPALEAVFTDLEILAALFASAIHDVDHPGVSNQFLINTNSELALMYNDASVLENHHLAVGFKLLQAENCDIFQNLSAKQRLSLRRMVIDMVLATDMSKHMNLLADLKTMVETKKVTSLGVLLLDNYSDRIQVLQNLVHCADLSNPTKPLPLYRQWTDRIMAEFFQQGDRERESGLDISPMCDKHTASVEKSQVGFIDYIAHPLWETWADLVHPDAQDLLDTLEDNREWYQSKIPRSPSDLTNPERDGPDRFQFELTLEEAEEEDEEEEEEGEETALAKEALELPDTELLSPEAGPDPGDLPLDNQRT
UniProt P27815, other isoform, or with tags, fused parts or gaps: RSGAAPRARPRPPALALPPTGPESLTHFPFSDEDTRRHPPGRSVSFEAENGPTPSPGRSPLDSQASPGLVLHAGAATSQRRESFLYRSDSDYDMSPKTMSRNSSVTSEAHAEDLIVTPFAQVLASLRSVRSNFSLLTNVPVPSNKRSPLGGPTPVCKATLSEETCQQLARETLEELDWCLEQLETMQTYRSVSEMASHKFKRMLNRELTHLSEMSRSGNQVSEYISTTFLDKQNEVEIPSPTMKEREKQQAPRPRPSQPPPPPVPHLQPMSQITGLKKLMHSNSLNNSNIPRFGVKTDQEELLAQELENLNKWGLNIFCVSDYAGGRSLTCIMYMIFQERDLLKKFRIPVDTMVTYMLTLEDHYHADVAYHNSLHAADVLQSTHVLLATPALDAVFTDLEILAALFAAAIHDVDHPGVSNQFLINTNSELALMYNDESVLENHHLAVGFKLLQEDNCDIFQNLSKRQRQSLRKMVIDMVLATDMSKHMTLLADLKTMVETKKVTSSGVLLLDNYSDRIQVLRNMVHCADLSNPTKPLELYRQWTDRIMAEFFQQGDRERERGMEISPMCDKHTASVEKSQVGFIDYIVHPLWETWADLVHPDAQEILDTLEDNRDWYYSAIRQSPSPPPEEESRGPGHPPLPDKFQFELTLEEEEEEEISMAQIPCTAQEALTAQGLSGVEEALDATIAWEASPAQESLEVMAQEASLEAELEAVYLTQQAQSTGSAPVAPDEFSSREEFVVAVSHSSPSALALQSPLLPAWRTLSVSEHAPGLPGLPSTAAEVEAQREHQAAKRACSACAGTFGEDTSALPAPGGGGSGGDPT

Experiments:
Format in all cases: biochemical
[1] = target: Human PDE4D (Homo sapiens (Human), UniProt Q08499); assay: PDE4D Scintillation Proximity Assay (SPA), inhibition of enzyme activity; conditions: human recombinant enzyme, 1 μM cAMP substrate, 30 min at 25° C., geometric mean of 2-9 determinations unless otherwise indicated, read-out: Human PDE4D FL
[2] = target: Human PDE4C (Homo sapiens (Human), UniProt Q08493); assay: PDE4C Scintillation Proximity Assay (SPA), inhibition of enzyme activity; conditions: human recombinant enzyme, 1 μM cAMP substrate, 30 min at 25° C., geometric mean of 2-9 determinations unless otherwise indicated, read-out: Human PDE4C FL
[3] = target: Human PDE4A (Homo sapiens (Human), UniProt P27815); assay: PDE4A Scintillation Proximity Assay (SPA), inhibition of enzyme activity; conditions: human recombinant enzyme, 1 μM cAMP substrate, 30 min at 25° C., geometric mean of 2-9 determinations unless otherwise indicated, read-out: Human PDE4A FL

Structure (SMILES)	IC50 [1] [nM]	IC50 [2] [nM]	IC50 [3] [nM]
Cc1cc(-c2c(C(=O)NC3CC3)nc3cccnn23)c(F)cc1C#N [Example 17, 3-(4-cyano-2-fluoro-5-methylphenyl)-N-cyclopropylimidazo[1,2-b]pyridazine-2-carboxamide]	> 18200		
O=C(NC1CC1)c1nc2cccnn2c1-c1ccc2ncnn2c1 [Example 6, N-Cyclopropyl-3-([1,2,4]triazolo[1,5-a]pyridin-6-yl)imidazo[1,2-b]pyridazine-2-carboxamide]	4890		
O=C(Nc1cn[nH]c1)c1nc2cccnn2c1-c1ccc(Cl)c(F)c1 [Example 82, 3-(4-chloro-3-fluorophenyl)-N-(1H-pyrazol-4-yl)imidazo[1,2-b]pyridazine-2-carboxamide]	56.5		
Cc1cc(C#N)c(F)cc1-c1c(C(=O)NC2CC2)nc2cccnn12 [Example 19, 3-(4-cyano-5-fluoro-2-methylphenyl)-N-cyclopropylimidazo[1,2-b]pyridazine-2-carboxamide]	645		
O=C(c1nc2cccnn2c1-c1ccc2c(c1)OC(F)(F)O2)N1CCC1 [Example 86, azetidin-1-yl[3-(2,2-difluoro-1,3-benzodioxol-5-yl)imidazo[1,2-b]pyridazin-2-yl]methanone]	179	25	
O=C(c1nc2cccnn2c1-c1ccc(Cl)cc1)N1CCCC1 [Example 27, [3-(4-chlorophenyl)imidazo[1,2-b]pyridazin-2-yl](pyrrolidin-1-yl)methanone]	5620		742
COc1ccc(-c2c(C(=O)N3CCC3)nc3cccnn23)c(F)c1 [Example 73, azetidin-1-yl[3-(2-fluoro-4-methoxyphenyl)imidazo[1,2-b]pyridazin-2-yl]methanone]	> 24700		
Cc1cc(C#N)c(F)cc1-c1c(C(=O)NC(C)C)nc2cccnn12 [Example 99, 3-(4-cyano-5-fluoro-2-methylphenyl)-N-(propan-2-yl)imidazo[1,2-b]pyridazine-2-carboxamide]	1550		
O=C(c1nc2cccnn2c1-c1cncc(Cl)c1)N1CCC1 [Example 15, azetidin-1-yl[3-(5-chloropyridin-3-yl)imidazo[1,2-b]pyridazin-2-yl]methanone]	> 23700		
Cc1cc(Cl)ccc1-c1c(C(=O)N2CCC2)nc2cccnn12 [Example 56, azetidin-1-yl[3-(4-chloro-2-methylphenyl)imidazo[1,2-b]pyridazin-2-yl]methanone]	3930		
Cc1ccc(-c2c(C(=O)N3CCC3)nc3cccnn23)cc1Cl [Example 49, azetidin-1-yl[3-(3-chloro-4-methylphenyl)imidazo[1,2-b]pyridazin-2-yl]methanone]	535	19	
O=C(c1nc2cccnn2c1-c1cc(F)c(Cl)cc1F)N1CCC1 [Example 91, azetidin-1-yl[3-(4-chloro-2,5-difluorophenyl)imidazo[1,2-b]pyridazin-2-yl]methanone]	2250		
CCCNC(=O)c1nc2cccnn2c1-c1cc(F)cc(Cl)c1 [Example 34, 3-(3-chloro-5-fluorophenyl)-N-propylimidazo[1,2-b]pyridazine-2-carboxamide]	2110	47	
O=C(Nc1ccn[nH]1)c1nc2cccnn2c1-c1ccc(Cl)cc1 [Example 103, 3-(4-chlorophenyl)-N-(1H-pyrazol-5-yl)imidazo[1,2-b]pyridazine-2-carboxamide]	1550		
